Biological target: GCN2 kinase (Homo sapiens (Human), UniProt Q9P2K8)
Test: GCN2 Enzyme Inhibition Assay (Transcreener ADP2 fluorescence polarization)
Type: biochemical
Details: read-out: GCN2 (Ki); Ki(app); 280 μM ATP, 200 μM (RS)7 peptide, 4 nM GCN2, 25° C.

By UniProt entry, the sequences of proteins in these tests, tags left out.
UniProt Q9P2K8, whole entry: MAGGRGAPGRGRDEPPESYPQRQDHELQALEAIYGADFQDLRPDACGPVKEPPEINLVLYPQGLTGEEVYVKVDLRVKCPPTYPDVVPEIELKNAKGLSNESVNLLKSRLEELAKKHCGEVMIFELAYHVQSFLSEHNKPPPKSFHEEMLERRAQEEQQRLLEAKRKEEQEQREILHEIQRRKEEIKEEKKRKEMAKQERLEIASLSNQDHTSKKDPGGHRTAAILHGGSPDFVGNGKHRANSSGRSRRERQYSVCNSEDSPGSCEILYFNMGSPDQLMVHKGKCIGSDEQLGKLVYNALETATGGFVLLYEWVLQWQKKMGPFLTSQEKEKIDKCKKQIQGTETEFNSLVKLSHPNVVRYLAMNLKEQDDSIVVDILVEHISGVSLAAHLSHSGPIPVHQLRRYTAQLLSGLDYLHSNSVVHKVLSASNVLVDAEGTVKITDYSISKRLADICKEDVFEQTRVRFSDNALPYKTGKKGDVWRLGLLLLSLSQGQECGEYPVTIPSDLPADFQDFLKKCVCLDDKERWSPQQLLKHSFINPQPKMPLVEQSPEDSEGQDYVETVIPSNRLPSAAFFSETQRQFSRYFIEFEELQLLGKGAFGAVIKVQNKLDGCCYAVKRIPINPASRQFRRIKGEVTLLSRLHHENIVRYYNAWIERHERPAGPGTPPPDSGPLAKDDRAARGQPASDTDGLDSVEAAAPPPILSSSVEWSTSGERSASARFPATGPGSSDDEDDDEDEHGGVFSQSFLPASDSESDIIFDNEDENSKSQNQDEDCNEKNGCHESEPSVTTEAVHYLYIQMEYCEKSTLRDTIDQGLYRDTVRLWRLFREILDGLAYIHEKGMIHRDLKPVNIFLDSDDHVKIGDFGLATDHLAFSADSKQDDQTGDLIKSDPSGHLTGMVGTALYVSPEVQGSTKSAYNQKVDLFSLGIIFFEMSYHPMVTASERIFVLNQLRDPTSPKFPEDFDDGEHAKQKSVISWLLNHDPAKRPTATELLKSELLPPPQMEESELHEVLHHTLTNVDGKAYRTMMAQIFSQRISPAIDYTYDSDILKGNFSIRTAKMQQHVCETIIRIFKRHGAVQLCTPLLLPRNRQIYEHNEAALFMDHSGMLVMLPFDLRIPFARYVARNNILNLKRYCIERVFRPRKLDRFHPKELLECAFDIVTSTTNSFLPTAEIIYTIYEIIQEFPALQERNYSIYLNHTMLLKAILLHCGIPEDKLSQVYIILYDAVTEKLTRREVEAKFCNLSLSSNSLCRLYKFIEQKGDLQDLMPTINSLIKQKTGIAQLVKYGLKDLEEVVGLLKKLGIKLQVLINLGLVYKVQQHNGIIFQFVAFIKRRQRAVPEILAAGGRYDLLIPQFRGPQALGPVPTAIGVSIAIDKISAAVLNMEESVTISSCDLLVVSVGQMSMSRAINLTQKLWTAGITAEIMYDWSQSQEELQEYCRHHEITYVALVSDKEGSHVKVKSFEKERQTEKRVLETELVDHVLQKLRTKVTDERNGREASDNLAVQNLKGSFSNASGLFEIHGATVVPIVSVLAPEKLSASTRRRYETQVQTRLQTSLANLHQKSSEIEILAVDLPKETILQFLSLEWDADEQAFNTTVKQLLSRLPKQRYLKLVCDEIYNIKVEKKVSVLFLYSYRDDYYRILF

## CC1CN(c2ccnc(-c3cnc4ccc(C(F)(F)F)cn34)n2)CC(c2cn[nH]c2)N1 (single isomer, unassigned)
  Ki: < 10 nM
